ARFGAP1 inhibitor = inhibitors of rat ARFGAP1. Arfgap1-stimulated ARF1 GTP hydrolysis, GDP FP detection. inhibition, % at 16.5 µM. 360,000 tested, 0.26% active;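 active = inhibition above a per-plate limit, mean inhibition of low control wells plus 3 SD, cut at about 25% in these data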;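 also: 0% = DMSO wells with enzyme and 100% = wells lacking Arfgap1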
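Material: rat Arfgap1 catalytic domain, aa 1-136; also added: human ARF1(Δ1-17)-GTP substrate; compound dosing: one concentration, 16.5 µM, DMSO 1.26%; incubation: GTP hydrolysis reaction 2 h at 25 °C; measured by: Tracer-displacement fluorescence polarization with EDTA stop, 620/688 nm; evaluation: % inhibition from polarization; repeats: one replicate per compound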
UUG fidelity = modulators of yeast start codon fidelity, primary screen, whole organism, S. cerevisiae, single point, plate reader; S. cerevisiae UUG-firefly luciferase reporter, luminescence/redox ratio; activity score, % at 18.7 µM; 0.13% of 350,000 active; AID 602363, 2012;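 active = replicate mean at a twofold rise or more, about +100% in these data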;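 also: firefly luciferase made from a UUG start codon reports start codon fidelity; reporter light over untreated wells divided by growth signal over untreated wells; some hits fall short of that in this replicate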
MC4R antagonist = antagonists of human melanocortin 4 receptor (MC4R); P32245; MC4R-expressing cells, MTII-stimulated cAMP, LANCE TR-FRET; inhibition, % at 6.5 µM; 360,000 tested, 0.48% active; AID 540295;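 active = inhibition above its plate's cutoff, the mean of tested wells on that plate plus 3 SD, cut at about 29% in these data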;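 also: 0% = Melanotan II alone and 100% = Melanotan II plus saturating MCL0020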
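System: U2OS-MC4R stable cell line; Technique: Eu-cAMP/anti-cAMP TR-FRET, emission 671 nm; Repeats: single well per compound; Also added: Melanotan II; Dosing: one concentration, 6.5 µM nominal; Schedule: 30-min compound, 1-h challenge, 1-h detection, room temperature.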
NRP1-CendR mod = alters CendR peptide binding to human NRP-1; O14786; FAM-RPARPAR peptide binding to NRP-1, fluorescence polarization; inhibition, % at 25 µM; 360,000 tested, 0.85% active; AID 602438;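 active = inhibition or corrected inhibition above about 18%, plus a signal ratio from 0.5 to 1.5, limit read from the data, passing the limit was not always enough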
ASAP1 inh = ASAP1 ArfGAP inhibition. inhibition, % at 16.5 µM. 360,000 tested, 0.19% active. Q9ULH1. ASAP1-stimulated ARF1 GTP hydrolysis, GDP FP detection; in the data active = inhibition above about 25%;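 also: 0% = vehicle with enzyme and substrate and 100% = no enzyme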
MC4R ag barr = activates human MC4R beta-arrestin recruitment; activation, % at 8.9 µM; 360,000 tested, 0.98% active; U2OS MC4R beta-arrestin complementation, luminescence; percent of melanotan II response, DMSO zero; P32245; AID 540308;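 active = activation above a per-plate cutoff, the mean activation of sample wells on that plate plus 3 SD, cut at about 8% in these data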
Numbers without * were called inactive; . = no result. The list is not random: actives were taken first. Their share in the collection is about 2.3%.

Assay codes: A = ARFGAP1 inhibitor; B = UUG fidelity; C = MC4R antagonist; D = NRP1-CendR mod; E = ASAP1 inh; F = MC4R ag barr
#1 COC(=O)CCC(=O)Nc1ccccc1C(N)=O
  A: 6; B: -11; C: -2; D: 0; E: -5; F: -3

#2 C[C@@H]1CN([C@@H](C)CO)S(=O)(=O)c2ccc(C#Cc3ccncc3)cc2O[C@@H]1CN(C)C(=O)C1CC1
  A: .; B: -6; C: .; D: .; E: .; F: .

#3 O=C(c1ccccn1)N1C[C@@H]2[C@H](c3ccccc31)[C@@H](CO)N2C(=O)c1ccccn1
  A: .; B: -9; C: .; D: .; E: .; F: .

#4 Cc1cccc(C)c1NC(=O)C1(C)CCC(=O)N1C1CCN(Cc2ccccc2)CC1 (centres undefined)
  A: 10; B: -6; C: .; D: 21*; E: -12; F: .

#5 C[C@@H]1CN([C@@H](C)CO)C(=O)Cc2cc(NS(=O)(=O)c3ccc(F)cc3)ccc2O[C@H]1CN(C)C
  A: .; B: -9; C: .; D: .; E: .; F: .

#6 COc1ccc2c3c(cccc13)N(C)N=C2C
  A: -13; B: -16; C: -13; D: 63*; E: -4; F: -1

#7 COc1ccc2c3c(cccc13)OC2=O
  A: -17; B: .; C: 1; D: -19; E: 1; F: -2

#8 CCCNC(=O)C(Cc1ccccc1)NC(=O)c1ccc(C(C)(C)C)cc1 (centres undefined)
  A: -6; B: -22; C: -2; D: 26*; E: 4; F: 0

#9 CCC(=O)Nc1nc(C)c(Oc2ccccc2)c(=O)[nH]1
  A: -8; B: -2; C: 0; D: 24*; E: 8; F: -1

#10 CS(=O)(=O)N(CC(=O)N1CCN(c2cccc(Cl)c2)CC1)C1CCCCC1
  A: 0; B: 18; C: 9; D: 19*; E: -5; F: -1

Next results follow.
Assay codes: A = ARFGAP1 inhibitor; B = UUG fidelity; C = MC4R antagonist; D = NRP1-CendR mod; E = ASAP1 inh; F = MC4R ag barr
#11 CC(C)(C)NC(=O)CSc1nc(-c2ccccc2)c(-c2ccccc2)[nH]1
  A: -6; B: -18; C: 14; D: 9; E: -1; F: 8.8*

#12 O=C(O)CSc1nc(-c2ccccc2)c(-c2ccccc2)[nH]1
  A: 13; B: .; C: 2; D: 0; E: 5; F: 1

#13 COc1ccc(N2CC(C(=O)O)CC2=O)cc1 (centres undefined)
  A: -1; B: -16; C: 18; D: 3; E: 3; F: 0

#14 COc1ccc(N2CS(=O)CC2=O)cc1 (centres undefined)
  A: -2; B: -10; C: -6; D: 27*; E: 0; F: -1

#15 CCCCn1nnnc1C(c1cc2ccccc2o1)N1CCCCC1 (centres undefined)
  A: -4; B: .; C: .; D: -11; E: -18; F: .

#16 CCCCn1nnnc1C(c1cc2ccccc2o1)N1CCN(c2c(C)cccc2C)CC1 (centres undefined)
  A: 2; B: .; C: .; D: 26*; E: -5; F: .

#17 COc1ccc(-c2nnc(SCc3nc4ccccc4c(=O)[nH]3)o2)cc1
  A: 9; B: -14; C: -15; D: -28; E: -2; F: 8.2*

#18 CN1c2ccc(-c3ccccc3)cc2[C@H]2[C@H](CCN2C(=O)CN2CCOCC2)[C@H]1CO
  A: .; B: -10; C: .; D: .; E: .; F: .

#19 COC(=O)C1=C(C)N(Cc2ccccc2)C(=NCc2cccc(C(F)(F)F)c2)N[C@H]1c1cccc(C(F)(F)F)c1
  A: .; B: -1; C: 8; D: -3; E: .; F: 21*

#20 COC(=O)C1=C(C)N(Cc2ccccc2)C(=NCCc2c[nH]c3ccccc23)N[C@H]1c1cccc(C(F)(F)F)c1
  A: .; B: -1; C: 11; D: -16; E: .; F: 33*

Continuation.
Assay codes: A = ARFGAP1 inhibitor; B = UUG fidelity; C = MC4R antagonist; D = NRP1-CendR mod; E = ASAP1 inh; F = MC4R ag barr
#21 COC(=O)C1=C(C)N(Cc2ccccc2)C(=NCc2cccc(C(F)(F)F)c2)N[C@H]1c1cccc(F)c1
  A: -4; B: -3; C: 9; D: -2; E: 13; F: 13*

#22 C[C@H](CO)N1C[C@H](C)[C@H](CN(C)Cc2ccc3c(c2)OCO3)Oc2ccc(NC(=O)C3CC3)cc2C1=O
  A: .; B: -9; C: .; D: .; E: .; F: .

#23 COc1cccc(S(=O)(=O)Nc2ccc3c(c2)[C@H]2C[C@@H](CC(=O)O)O[C@H](CO)[C@H]2O3)c1
  A: .; B: 37*; C: .; D: .; E: .; F: .

#24 COc1cccc(S(=O)(=O)Nc2ccc3c(c2)[C@@H]2C[C@H](CC(=O)O)O[C@@H](CO)[C@@H]2O3)c1
  A: .; B: -7; C: .; D: .; E: .; F: .

#25 CCCNC(=O)C[C@@H]1C[C@H]2c3cc(NC(=O)CC4CC4)ccc3O[C@H]2[C@@H](CO)O1
  A: .; B: -9; C: .; D: .; E: .; F: .

#26 CCCNC(=O)C[C@@H]1C[C@H]2c3cc(NC(=O)CC4CC4)ccc3O[C@H]2[C@H](CO)O1
  A: .; B: 139*; C: .; D: .; E: .; F: .

#27 O=C(N[C@H]1CC[C@@H](CC(=O)N2CCCCC2)O[C@H]1CO)c1ccc2c(c1)OCO2
  A: .; B: -9; C: .; D: .; E: .; F: .

#28 Cc1ccn2c(-c3csc(NCc4ccccc4)n3)c(C)nc2c1
  A: 1; B: .; C: -1; D: 25*; E: -2; F: 0

#29 Cc1nc2ccccn2c1-c1csc(NCc2ccco2)n1
  A: 12; B: -16; C: -1; D: 0; E: -1; F: -2

#30 Cc1[nH]n(-c2cccc3ccccc23)c(=O)c1C=Nc1ccc2[nH]c(=O)[nH]c2c1
  A: -16; B: -25; C: 1; D: -8; E: -6; F: 0

Additional entries follow.
Assay codes: A = ARFGAP1 inhibitor; B = UUG fidelity; C = MC4R antagonist; D = NRP1-CendR mod; E = ASAP1 inh; F = MC4R ag barr
#31 Cc1ccc(-n2[nH]c(C)c(C=Nc3ccc4[nH]c(=O)[nH]c4c3)c2=O)cc1
  A: -11; B: .; C: 2; D: 30*; E: -10; F: -2

#32 Cc1ccc(-n2[nH]c(C)c(C=Nc3ccc4[nH]c(=O)[nH]c4c3)c2=O)cc1C
  A: 5; B: -14; C: 7; D: 9; E: 4; F: 16*

#33 CN(C[C@@H]1[C@@H](c2ccccc2)[C@H](CO)N1C(=O)c1ccccc1)C(=O)C1CC1
  A: .; B: 17; C: .; D: .; E: .; F: .

#34 Cc1nnc(NC(=O)c2ccccc2C(=O)O)s1
  A: -5; B: -14; C: -4; D: 35*; E: 3; F: 2

#35 CC(Sc1nccn1C)C(=O)c1c(N)n(C)c(=O)n(C)c1=O (centres undefined)
  A: 16; B: -10; C: -4; D: 0; E: 9; F: -3

#36 CC(Cl)C(=O)c1c(N)n(C)c(=O)n(C)c1=O (centres undefined)
  A: .; B: .; C: 1; D: 40*; E: .; F: 1

#37 CC(=O)N/N=C/c1cc(C(C)C)cc(/C=N/NC(C)=O)c1O
  A: -1; B: .; C: 18; D: 41*; E: 8; F: 0

#38 Cc1noc(C)c1NC(=O)N(C)C[C@H]1OCCCC[C@@H](C)Oc2ccc(NS(=O)(=O)c3ccc(Cl)cc3)cc2C(=O)N([C@@H](C)CO)C[C@@H]1C
  A: .; B: 2; C: .; D: .; E: .; F: .

#39 C/C=C/c1ccc2c(c1)O[C@H](CN(C)C(=O)NC(C)C)[C@@H](C)CN([C@H](C)CO)S2(=O)=O
  A: .; B: 2; C: .; D: .; E: .; F: .

#40 CCOC(=O)c1c(C)oc(=O)c(CC)c1O
  A: -2; B: -26; C: -2; D: 3; E: 4; F: -2

Some of the entries so far, as tab-separated lines.
nr	SMILES	ARFGAP1 inhibitor	UUG fidelity	MC4R antagonist	NRP1-CendR mod	ASAP1 inh	MC4R ag barr
33	CN(C[C@@H]1[C@@H](c2ccccc2)[C@H](CO)N1C(=O)c1ccccc1)C(=O)C1CC1	.	17	.	.	.	.
34	Cc1nnc(NC(=O)c2ccccc2C(=O)O)s1	-5	-14	-4	35*	3	2
35	CC(Sc1nccn1C)C(=O)c1c(N)n(C)c(=O)n(C)c1=O (centres undefined)	16	-10	-4	0	9	-3

(more compounds)
Assay codes: A = ARFGAP1 inhibitor; B = UUG fidelity; C = MC4R antagonist; D = NRP1-CendR mod; E = ASAP1 inh; F = MC4R ag barr
#41 CCOC(=O)c1c(C)oc2c(F)c(F)c(F)c(F)c2c1=O
  A: -9; B: -11; C: 33*; D: -6; E: -1; F: 0

#42 COc1cc(C(=O)c2c(C)c(CCC#N)n3ccccc23)cc(OC)c1OC
  A: 7; B: .; C: 6; D: 21*; E: -4; F: -3

#43 C[C@H](CO)N1C[C@H](C)[C@@H](CN(C)S(=O)(=O)c2cn(C)cn2)Oc2ccc(NC(=O)CCCCCC(=O)Nc3ccccc3N)cc2C1=O
  A: .; B: -9; C: .; D: .; E: .; F: .

#44 CCOc1cc(C(=S)N2CCOCC2)ccc1OS(=O)(=O)c1ccc(OC)cc1
  A: 0; B: -14; C: 6; D: 30*; E: 10; F: -3

#45 CCOc1cc(C(=S)N2CCOCC2)ccc1OS(=O)(=O)c1ccc(NC(C)=O)cc1
  A: 10; B: .; C: -3; D: 1; E: 7; F: -2

#46 C[C@@H]1CN([C@@H](C)CO)C(=O)c2cc(NC(=O)CCC(F)(F)F)ccc2O[C@H]1CN(C)Cc1ccncc1
  A: .; B: -17; C: .; D: .; E: .; F: .
